# Data reported in US20250352563A1, “Method and Use of Psilocybin in the Prevention and Treatment of Stroke” (Revive Therapeutics Ltd, priority 2022, published 2025).
# Test system: rat primary cortical neuronal culture
# Test: Glutamate neurotoxicity in primary cortical neuronal culture (MAP2 immunocytochemistry)
# Conditions: Glutamate 100 μM; Psilocybin 0.1, 1, 10 μM; DIV10-DIV12; p<0.05, 1-Way ANOVA
smiles,measurement,value
"CN(C)CCc1c[nH]c2cccc(OP(=O)(O)O)c12 [Psilocybin, 4-phosphoryloxy-N,N-dimethyltryptamine]",Glutamate-mediated reduction of MAP2 immunoreactivity,dose-dependently mitigated this response
